Laboratory results published in publication PMC4411102 (PLoS ONE, 2015).

Test system: HIV-1 strains (IIIB, BaL, ADA5 and NL4-3)
Assay: p24 antigen assay in PBMCs
Details: presence of HbAHP-25 (4.46–71.40 μM), 120 hrs

CC(C)C[C@H](NC(=O)[C@H](CC(C)C)NC(=O)[C@H](CCCCN)NC(=O)[C@H](CS)NC(=O)[C@H](CC(N)=O)NC(=O)[C@@H](NC(=O)[C@@H]1CCCN1C(=O)[C@H](CC(=O)O)NC(=O)[C@@H](NC(=O)[C@H](CCCNC(=N)N)NC(=O)[C@H](CC(C)C)NC(=O)[C@H](CCCCN)NC(=O)[C@H](Cc1c[nH]cn1)NC(=O)[C@H](C)N)C(C)C)C(C)C)C(=O)N[C@@H](CO)C(=O)N[C@@H](Cc1c[nH]cn1)C(=O)N[C@@H](CS)C(=O)N[C@@H](CC(C)C)C(=O)N[C@@H](CC(C)C)C(=O)N[C@H](C(=O)N[C@H](C(=O)N[C@@H](CC(C)C)C(=O)N[C@@H](C)C(=O)N[C@@H](CCCNC(=N)N)C(=O)N[C@@H](Cc1c[nH]cn1)C(N)=O)[C@@H](C)O)C(C)C [HbAHP-25]
Reduction in p24 levels: More than 90%
